Source: paper PMC3345099 (Journal of Immunology (Baltimore, Md. : 1950), 2012)

Biological target: HLA A*11:01 (purified MHC class I) (Homo sapiens, UniProt P04439, A114D/D185E/E176A/F33Y/L180Q/S129P/T187R)
Assay: In vitro radiolabeled competitive HLA binding assay

C[C@@H](O)[C@H](NC(=O)[C@@H](N)CCCCN)C(=O)N[C@@H](CO)C(=O)N[C@@H](CCC(=O)O)C(=O)N[C@@H](CCCNC(=N)N)C(=O)N[C@@H](CO)C(=O)N[C@@H](CCC(N)=O)C(=O)N1CCC[C@H]1C(=O)N[C@@H](CCCNC(=N)N)C(=O)O
IC50: 38 nM
